What was measured:
[1] = Plasma pharmacokinetics of t-TUCB after intravenous administration; type: in vivo; conditions: horses, i.v., 1 mg/kg; for at least 48 hours
[2] = Synovial fluid t-TUCB concentrations after intravenous administration; type: in vivo; conditions: horses, i.v., 1 mg/kg; for at least 48 hours

Plasma concentration relative to in vitro IC95 [1]: several fold higher | Synovial fluid concentration relative to in vitro IC95 [2]: several fold higher
Structure (SMILES): O=C(Nc1ccc(OC(F)(F)F)cc1)N[C@H]1CC[C@H](Oc2ccc(C(=O)O)cc2)CC1 [t-TUCB, trans-4-{4-[3-(4-Trifluoromethoxy-phenyl)-ureido]-cyclohexyloxy}-benzoic acid]
